According to PubChem BioAssay AID602332 (National Center for Advancing Translational Sciences (NCATS), 2012):
Several values for one entry are separate records, joined by “and”; a condition that tells them apart may be missing. Equal values may be shown once. The list shows a part of the results, in another mix than the full data. Activity calls are given as the source filed them. Calls come from the whole dose curve; as a rule, active = well fitted activation curve with a large enough effect; inconclusive = small, poorly fitted or top-dose-only effect; inactive = no such curve, though single readings can be large or run the other way.

Test: qHTS for Inducers of the Endoplasmic Reticulum Stress Response (ERSR) in Human Glioma: qHTS; note: % of control where 0% means no effect; nearly all actives have a fitted effect of over 35% in size
Conditions: U87-MG GRP78 promoter luciferase reporter, 16 h; active compounds read high

SMILES	activation
CN(CCCl)CCCl	inactive: -3.7% and inactive: -2.42%
CCC(=O)N(c1ccccc1)C1(COC)CCN(CCn2nnn(CC)c2=O)CC1	inactive: -2.18% and inactive: 1.83%
CCC(=O)N(c1ccccc1)C1(COC)CCN(CCc2cccs2)CC1	inactive: -2.26% and inactive: -2.66%
